Here are results for 14 compounds from PubChem BioAssay (NCATS).

Only a part is listed here, and it is no random draw. Inconclusive results are not listed. The source made the active and inactive calls. Unless noted, the call rests on the fitted dose curve; in most records, active means well fitted curve in the direction sought with a large enough effect; inconclusive means small, poorly fitted or top-dose-only effect, or another doubt; inactive means no such curve, though single readings can be large; an effect the other way counts as inactive or inconclusive.

The target of assay [1] is Mitogen-activated protein kinase 10 (Mus musculus) (UniProt Q61831). The assay is described as follows: JNK3 AlphaScreen Assay (AID 530; active means well fitted curve in either direction with a large enough effect, not every such curve was filed as active;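 further: kinase came from lysate of stimulated human HepG2 cells; signal reports phosphorylation of biotinylated GST-cJun 1-79 at Ser73 with 10 µM ATP; on the % scale 0 is the no-effect control and ±100 the full control effect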). As to conditions: JNK3 lysate, c-Jun phosphorylation; at 57.1 µM (top of the series) unless noted. Put shortly:
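Phosphorylation of biotinylated GST-cJun(1-79) at Ser73 is measured by AlphaScreen proximity luminescence. Enzyme is JNK3 in HepG2 lysates activated with interleukin-1beta and tumor necrosis factor alpha; ATP is 10 uM final.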
For orientation: In Alpha technology, singlet oxygen from a donor bead excites a nearby acceptor bead.

Assay [2] in a line: Cell Viability - N2a (AID 540).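 Further: cells exposed to compound for 40 h at 37 °C; plate controls were DMSO alone for no effect and tamoxifen control for full effect; nearly all actives have a fitted effect of over 45% in size.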 As to conditions: N2a mouse neuroblastoma cell viability; at 92.2 µM (top of the series). The method, boiled down: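 Cytotoxicity was scored as loss of cellular ATP in N2a cells, a mouse neuroblastoma line. Compounds are applied in a qHTS concentration series for 40 hr at 37 °C.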
Assay [3] can be described thus: Cell Viability - NIH 3T3 (AID 541).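 Further: cells exposed to compound for 40 hours; nearly all actives have a fitted effect of over 25% in size.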 Further: potency means the concentration at half of the fitted maximal effect.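 On activity change, negative = cytotoxicity: plate controls were DMSO alone for no effect and tamoxifen positive control for full effect.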 The method, boiled down: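 Cells seeded at 1000/well, rested 5 hr at 37 °C, then dosed and incubated 40 hr at 37 °C. CellTiter-Glo added, 20 min room temperature, luminescence read. AC50 by Hill fit.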
Assay [4] is described as follows: Cell Viability - HUV-EC-C (AID 542).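 Further: cells exposed to compound for 40 hours; on the % scale 0 is the no-effect control and ±100 the full control effect; nearly all actives have a fitted effect of over 35% in size.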 As to conditions: HUV-EC-C endothelial cell viability, qHTS; at 92.2 µM (top of the series). The method, boiled down: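 Cells were seeded at 1000 per well and incubated 5 hr at 37 °C before compound addition. After 40 hr at 37 °C, CellTiter-Glo reagent was added for 20 min and luminescence read. AC50 values came from Hill-equation modelling.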
For orientation: Quantitative high-throughput screening tests each substance at several concentrations.

A short description of assay [5]: Cell Viability - H-4-II-E (AID 543).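 Further: cells exposed to compound for 40 hours; on the % scale 0 is the no-effect control and ±100 the full control effect; nearly all actives have a fitted effect of over 35% in size.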 As to conditions: H-4-II-E rat hepatoma viability; at 92.2 µM (top of the series). Put shortly:
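Cells seeded at 1500 per well and rested 5 hr; compounds added; 40 hr incubation at 37 °C; CellTiter-Glo added, 20 min at room temperature; luminescence read. Hill-equation fits gave AC50.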

Assay [6] can be described thus: Cell Viability - SH-SY5Y (AID 544).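 Further: cells exposed to compound for 40 hours; 0% = DMSO alone and -100% = 100 µM tamoxifen; nearly all actives have a fitted effect of over 55% in size.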 As to conditions: SH-SY5Y neuroblastoma cell viability; at 92.2 µM (top of the series). Put shortly: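 Cells were plated at 1500 per well and allowed 5 hr at 37 °C. Compounds were added across a concentration range and incubated 40 hr at 37 °C. CellTiter-Glo was added for 20 min at room temperature before luminescence reading.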

Assay [7] is described as follows: Cell Viability - Renal Proximal Tubule (AID 545).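 Further: cells exposed to compound for 40 hours; 0% = DMSO only and -100% = 100 µM tamoxifen; nearly all actives have a fitted effect of over 40% in size.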 As to conditions: renal proximal tubule cells viability, primary cells of rat origin; at 91.7 µM (top of the series). Put shortly: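 Luminescent ATP signal (CellTiter-Glo) served as the viability read-out after 40 hr compound exposure of freshly isolated rat proximal tubule cells at 37 °C. Concentration-dependent ATP loss was fitted with the Hill equation to give AC50.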

The nature of assay [8]: AP1 Signaling Pathway (AID 357; active means well fitted curve in either direction with a large enough effect, not every such curve was filed as active;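 further: ME-180 reporter cells stimulated with EGF at its EC50 level; on the % scale 0 is the no-effect control and ±100 the full control effect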). To be noted: ME-180 AP-1-bla reporter, EGF-induced, beta-lactamase ratio, 5 h; at 7.69 µM (top of the series) unless noted. The source says:
NCGC Assay Overview: Activator protein-1 (AP-1), a transcription factor, plays an important role in tumor genesis by regulating genes involved in cell proliferation, differentiation, apoptosis, and angiogenesis. AP-1 activity is induced by a complex network of signaling pathways that involves extracellular signals, such as growth factors. The AP-1 protein complex formed from c-Fos and c-Jun binding to the AP-1 response element results in transcriptional activation of genes containing such elements within their promoter. Low molecular weight molecules have been discovered and developed to modulate various components of these signaling pathways, for example, MAP kinase inhibitors. However, many points of pathway modulation remain untested due to the lack of chemical probes making this signaling locus of general interest. Using a beta-lactamase reporter-gene under control of the AP-1 response element, a cell-based assay [CellSensor(TM) AP-1-bla ME-180 developed by Invitrogen Corp.] was used to measure EGF-induced signaling. Library compounds were measured for their ability to modulate positively or negatively the action of EC50 EGF on reporter gene activity. Compounds were screened in a titration series in 1536-well format. Positive and negative modulators were identified based on the AC50 values derived from the screening data.
NCGC Assay Protocol Summary: 2500 cells/5uL in Opti-MEM medium containing 0.5% dialyzed FBS, 0.1 mM NEAA, 1 mM sodium pyruvate and 10 mM HEPES was dispensed into 1536-well plates and cells were cultured at 37 degrees Celsius overnight. […] After centrifugation at 1000 rpm for 2 seconds the plates were incubated at 37 degrees Celsius for 5 hours. 1 uL of CCF4-dye mixture was added to each well. After incubated at room temperature for 2.5 hours the plates were measured on an EnVision plate reader at Excitation 405nm, Emission1=460nm and Emission 2=530nm. The %Activity was determined from the ratio of 460nm/530nm.

The nature of assay [9]: NFAT Signaling Pathway (AID 444; active means well fitted curve in either direction with a large enough effect, not every such curve was filed as active;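 further: carbachol stimulus at about its EC50 of 1 µM final; on the % scale 0 is the no-effect control and ±100 the full control effect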). As to conditions: Jurkat NFAT-bla M1, carbachol, beta-lactamase ratio, 5 h; at 7.69 µM (top of the series) unless noted. Put shortly: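 Jurkat cells carrying an NFAT-driven β-lactamase reporter and co-transfected muscarinic M1 receptor were treated with compound plus carbachol (1 uM final, an EC50 level) for 5 h at 37 °C. CCF4 loading followed for 1 h at RT; 460/530 nm ratio gave %activity.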

A short description of assay [10]: Stat Signaling Pathway (AID 446; active means well fitted curve in either direction with a large enough effect, not every such curve was filed as active;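 further: ME-180 cervical cancer cells given 40 pM IL-6 alongside compound; SIE-controlled beta-lactamase reporter measured as 460/530 nm FRET emission ratio; on the % scale 0 is the no-effect control and ±100 the full control effect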). To be noted: ME-180 (cervical carcinoma) SIE beta-lactamase reporter, IL-6 stimulated, 5 h; at 38 µM (top of the series) unless noted. Put shortly: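 Compound effects on IL-6-induced STAT reporter activity were measured in ME-180 cells. After overnight culture, cells were co-treated with 40 pM IL-6 for 5 hrs before beta-lactamase substrate loading at room temperature.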

In the case of `Cc1ccc([N+](=O)[O-])cc1[N+](=O)[O-]`, the activity change, negative = inhibition in [1] was inactive: -11.5%. Besides, the activity change, negative = cytotoxicity in [2] was inactive: -10.6%; in assay [4] it was inactive: -2.56%; in [7], inactive: 12.2%. The Potency result in assay [3] is “inactive”. In addition, the activity change, negative = cytotoxic in [5] was inactive: 0.149%. Also, the viability change, negative = cytotoxic in [6] is inactive: -3.04%.

In the case of `N#[O+].[C-]#N.[C-]#N.[C-]#N.[C-]#N.[C-]#N.[Fe+2].[Na+].[Na+]`, the figures for the activity change, negative = inhibition in assay [8], in assay [9] and in assay [1] were inactive: 17.9% [at 38 µM], inactive: 7.16% [at 38 µM] and inactive: -13%, respectively. In assay [10], the activity, negative = inhibition is inactive: 2.88%.

Regarding `O=[N+]([O-])[O-].[NH4+]`, the activity change, negative = inhibition in [1] was inactive: -4.3%. The results for the activity change, negative = cytotoxicity in assay [2], in assay [4] and in assay [7] were inactive: -0.432%, inactive: 1.25% and inactive: -0.846%, respectively. Besides, the Potency entry in [3] was “inactive”. In addition, in assay [5], the activity change, negative = cytotoxic is inactive: -6.43%. Besides, the viability change, negative = cytotoxic in assay [6] was inactive: -12.5%.

On to `N1=C(c2nnc(-c3nn[nH]n3)nn2)NNN1`, for which the activity change, negative = inhibition in [8] is inactive: -9.45%; in [9], inactive: 1.71%; in [1] it was inactive: 4.55% [at 11.4 µM]. Moreover, the activity, negative = inhibition in [10] is inactive: 3.45% [at 7.69 µM].

For `CCN(CC)CC(O)COC(=O)C(O)(c1ccccc1)C1CCCCC1` (centres undefined), in assay [10], the activity, negative = inhibition is inactive: 5.83% [at 17.2 µM].

For the compound `CCOP(=O)(CC)OCC`, in assay [1], the activity change, negative = inhibition is inactive: 12.5%. Further, the values for the activity change, negative = cytotoxicity in [2], in assay [4] and in assay [7] were inactive: 0.755%, inactive: 4.55% and inactive: -7.44%, respectively. In assay [3], the Potency entry was “inactive”. Besides, the activity change, negative = cytotoxic in assay [5] is inactive: 1.52%.

On to `O=[N+]([O-])c1cccc([N+](=O)[O-])c1`, for which the activity change, negative = inhibition in assay [1] was inactive: 22.7%. Further, the activity change, negative = cytotoxicity in [2] was inactive: -8.45%; in assay [4] it was inactive: -0.274%; in [7], inactive: -2.59%. Besides, in assay [6], the viability change, negative = cytotoxic is inactive: 5.63%.

As for `Cc1cccc([N+](=O)[O-])c1[N+](=O)[O-]`, in assay [1], the activity change, negative = inhibition is inactive: 2.99%. The results for the activity change, negative = cytotoxicity in assay [2], in assay [4] and in assay [7] were inactive: -20.5%, inactive: 1.15% and inactive: 2.28%, respectively. Moreover, in assay [3], the Potency was active: 5.01 µM. Besides, the activity change, negative = cytotoxic in assay [5] is inactive: -28.8%. Further, the viability change, negative = cytotoxic in assay [6] is inactive: -22.6%.

As to `Cc1ccc([N+](=O)[O-])c([N+](=O)[O-])c1`, in assay [1], the activity change, negative = inhibition was inactive: -1.48%. Moreover, the Potency in [3] was active: 7.94 µM. The activity change, negative = cytotoxicity in [4] is inactive: -12.3%. In addition, the viability change, negative = cytotoxic in assay [6] is inactive: -28.8%.

Turning to `CCC(C)(OO)OOC(C)(CC)OO` (centres undefined), the activity change, negative = inhibition in assay [1] was inactive: 10.6%. The activity change, negative = cytotoxicity in assay [2] is inactive: -0.54%; in assay [4] it was inactive: 12.3%; in assay [7] it was inactive: 6.13%. Besides, the Potency result in [3] is “inactive”. Further, the activity change, negative = cytotoxic in [5] is inactive: 0.495%. In addition, in [6], the viability change, negative = cytotoxic was inactive: -0.864%.

Turning to `Cc1c([N+](=O)[O-])cccc1[N+](=O)[O-]`, the activity change, negative = inhibition in assay [1] is inactive: 17.1%. The activity change, negative = cytotoxicity in assay [2] was inactive: -13.7%; in [4], inactive: -5.08%; in assay [7] it was inactive: -9.96%. Also, the Potency entry in [3] is “inactive”. Also, in assay [5], the activity change, negative = cytotoxic is inactive: -2.85%. Further, the viability change, negative = cytotoxic in assay [6] was inactive: -0.067%.

Regarding `NNC(NN)NN.n1nc(-c2nn[nH]n2)n[nH]1`, the activity change, negative = inhibition in assay [8] was inactive: 28.1%; in assay [9] it was inactive: -23.2%; in assay [1], inactive: 1.31% [at 11.4 µM]. Besides, the activity, negative = inhibition in [10] was inactive: 22.6% [at 7.69 µM].

For `[NH4+].[O-][Cl+3]([O-])([O-])[O-]`, the activity change, negative = inhibition in assay [1] is inactive: 0.491%. The activity change, negative = cytotoxicity is inactive: -0.281% in assay [2], inactive: 7.14% in assay [4] and inactive: -1.65% in [7]. For the same compound, in [3], the Potency result is “inactive”. For the same compound, the activity change, negative = cytotoxic in assay [5] was inactive: -2.5%. In assay [6], the viability change, negative = cytotoxic was inactive: 8.76%.

Turning to `C/C1=C2N=C(/C=C3N=C(/C(C)=C4\[N-][C@@](C)([C@H]5N=C1[C@@](C)(CCC(=O)NC[C@H](C)OP(=O)([O-])O[C@@H]1[C@H](O)[C@H](n6cnc7cc(C)c(C)cc76)O[C@@H]1CO)[C@@H]5CC(N)=O)[C@](C)(CC(N)=O)[C@H]4CCC(N)=O)[C@@](C)(CC(N)=O)[C@@H]\3CCC(N)=O)C(C)(C)[C@@H]/2CCC(N)=O.[C-]#N.[Co+3]`, the activity change, negative = inhibition in [8] is inactive: 2.28% [at 17.2 µM]; in [9], inactive: 0.216% [at 17.2 µM]; in [1], inactive: -7.23% [at 25.6 µM]. The activity, negative = inhibition in [10] was inactive: -4.4% [at 17.2 µM].
